The values below are quoted from earlier work in patent US20220280614A1, “Premixed Ultra-Stable Single-Chain Insulin Analogue Formulations” (CASE WESTERN RESERVE UNIVERSITY, priority 2019, published 2022).

For the data set the following is noted: cited from earlier work.

A value given as a limit tells only on which side of the number the result lay.

In the case of Insulin, the “increase in degradation rate for each 10° C. increment in temperature above 25° C.” value was no less than 10 fold.
